pIC50: −log10 of the molar value.
Biological target: Short transient receptor potential channel 6 (Mus musculus) (UniProt Q61143)
Experiment: TRPC6 inhibitor potency, dose response, cell-based, mouse TRPC6, HEK293, membrane potential (AID 2696)
Details: TRPC6-expressing cells, fluorescence ratio calcium influx

Chains of the proteins cited; added tags and fusions are not shown.
UniProt Q61143, whole entry: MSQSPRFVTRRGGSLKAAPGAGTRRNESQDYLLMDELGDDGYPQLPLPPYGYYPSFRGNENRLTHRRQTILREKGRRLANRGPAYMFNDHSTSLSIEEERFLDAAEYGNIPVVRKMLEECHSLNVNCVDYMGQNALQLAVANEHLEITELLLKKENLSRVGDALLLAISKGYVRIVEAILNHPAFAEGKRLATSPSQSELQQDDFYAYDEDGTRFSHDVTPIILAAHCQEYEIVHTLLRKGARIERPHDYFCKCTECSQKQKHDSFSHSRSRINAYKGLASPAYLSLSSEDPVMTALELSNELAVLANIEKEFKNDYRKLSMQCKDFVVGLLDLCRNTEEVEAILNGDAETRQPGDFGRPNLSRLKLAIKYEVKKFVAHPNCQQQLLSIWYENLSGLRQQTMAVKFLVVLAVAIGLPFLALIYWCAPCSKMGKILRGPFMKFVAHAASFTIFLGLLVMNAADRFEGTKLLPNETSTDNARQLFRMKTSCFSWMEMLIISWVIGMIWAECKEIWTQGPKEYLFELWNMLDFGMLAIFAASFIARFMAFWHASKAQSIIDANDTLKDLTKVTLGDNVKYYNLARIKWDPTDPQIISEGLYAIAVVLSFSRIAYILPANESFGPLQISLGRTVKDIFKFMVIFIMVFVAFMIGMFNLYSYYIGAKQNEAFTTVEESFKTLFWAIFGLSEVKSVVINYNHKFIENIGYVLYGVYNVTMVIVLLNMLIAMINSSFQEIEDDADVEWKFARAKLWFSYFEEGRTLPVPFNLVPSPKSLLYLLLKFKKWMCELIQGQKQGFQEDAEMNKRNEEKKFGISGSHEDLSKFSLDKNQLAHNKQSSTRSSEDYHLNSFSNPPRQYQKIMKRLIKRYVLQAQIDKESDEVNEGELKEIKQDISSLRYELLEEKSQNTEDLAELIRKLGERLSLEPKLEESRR

| Structure (SMILES) | pIC50 |
| --- | --- |
| O=C(OC1CN2CCC1CC2)C1c2ccccc2Oc2ccccc21 (configuration not stated) | 6.49 |
| CCC(CO)(C(=O)OC1CN2CCC1CC2)c1ccccc1 (configuration not stated) | 5.15 |

— PubChem BioAssay AID2696 (Johns Hopkins Ion Channel Center, 2010)
